Reference: patent US20020082213A1 (priority 1996, published 2002)

The chains behind the UniProt entries cited, without tags or fusion partners. Where a name states a change or a piece, a line headed by the entry shows the natural chain unless it says otherwise.
UniProt P35370: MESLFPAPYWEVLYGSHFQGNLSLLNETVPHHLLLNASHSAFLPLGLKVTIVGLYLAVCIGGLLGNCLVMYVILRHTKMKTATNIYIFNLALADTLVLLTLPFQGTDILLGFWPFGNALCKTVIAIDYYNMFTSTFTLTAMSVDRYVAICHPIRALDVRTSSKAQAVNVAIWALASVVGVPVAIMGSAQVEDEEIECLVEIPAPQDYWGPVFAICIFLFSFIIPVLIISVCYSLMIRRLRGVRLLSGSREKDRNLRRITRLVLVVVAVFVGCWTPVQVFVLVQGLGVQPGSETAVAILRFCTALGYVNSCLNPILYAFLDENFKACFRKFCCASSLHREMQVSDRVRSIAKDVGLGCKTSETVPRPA

Tests used:
LC132 receptor [1] = target: T1, LC132 receptor (Rattus norvegicus, UniProt P35370); assay: cell-based
LC132 receptor [2] = target: T1, LC132 receptor; settings: read-out: inhibitory constant (Ki), inhibition of [125I]Tyr14-orphanin binding; cited from earlier work

For `CC(C)C[C@H](NC(=O)[C@H](CCCCN)NC(=O)[C@H](CCCN=C(N)N)NC(=O)[C@H](C)NC(=O)[C@H](CO)NC(=O)[C@H](CCCCN)NC(=O)[C@H](CCCN=C(N)N)NC(=O)[C@H](C)NC(=O)CNC(=O)[C@@H](NC(=O)[C@H](Cc1ccccc1)NC(=O)CNC(=O)CNC(=O)[C@@H](N)Cc1ccccc1)[C@@H](C)O)C(=O)N[C@@H](C)C(=O)N[C@@H](CC(N)=O)C(=O)N[C@@H](CCC(N)=O)C(=O)O` [OFQ, F-G-G-F-T-G-A-R-K-S-A-R-K-L-A-N-Q], the EC50 (LC132 receptor [1]) is given as 1050 ± 210 pM, the Emax at 0.1 µM (LC132 receptor [1]; CHO, read-out: maximal effect, inhibition of forskolin-stimulated cAMP accumulation) is given as ~80% and the Ki (LC132 receptor [2]) is given as 190 ± 20 pM.
